{"source": "paper PMC11048482", "about": "(Biomolecules, 2024)", "test_system": "N=C(N)NCCC[C@H](N)C(=O)O", "test": "purified protein", "details": "pH 7.5, 1 h endpoint, PLP cofactor"}
{"substance": "SP_0166 (Streptococcus pneumoniae TIGR4)", "values": [{"measurement": "Km", "value": 11.3, "unit": "mM"}, {"measurement": "kcat", "value": "715,053 min^−1"}]}
